By UniProt entry, the sequences of proteins in these tests, tags left out. Where a name states a change or a piece, a line headed by the entry shows the natural chain unless it says otherwise.
UniProt Q14833: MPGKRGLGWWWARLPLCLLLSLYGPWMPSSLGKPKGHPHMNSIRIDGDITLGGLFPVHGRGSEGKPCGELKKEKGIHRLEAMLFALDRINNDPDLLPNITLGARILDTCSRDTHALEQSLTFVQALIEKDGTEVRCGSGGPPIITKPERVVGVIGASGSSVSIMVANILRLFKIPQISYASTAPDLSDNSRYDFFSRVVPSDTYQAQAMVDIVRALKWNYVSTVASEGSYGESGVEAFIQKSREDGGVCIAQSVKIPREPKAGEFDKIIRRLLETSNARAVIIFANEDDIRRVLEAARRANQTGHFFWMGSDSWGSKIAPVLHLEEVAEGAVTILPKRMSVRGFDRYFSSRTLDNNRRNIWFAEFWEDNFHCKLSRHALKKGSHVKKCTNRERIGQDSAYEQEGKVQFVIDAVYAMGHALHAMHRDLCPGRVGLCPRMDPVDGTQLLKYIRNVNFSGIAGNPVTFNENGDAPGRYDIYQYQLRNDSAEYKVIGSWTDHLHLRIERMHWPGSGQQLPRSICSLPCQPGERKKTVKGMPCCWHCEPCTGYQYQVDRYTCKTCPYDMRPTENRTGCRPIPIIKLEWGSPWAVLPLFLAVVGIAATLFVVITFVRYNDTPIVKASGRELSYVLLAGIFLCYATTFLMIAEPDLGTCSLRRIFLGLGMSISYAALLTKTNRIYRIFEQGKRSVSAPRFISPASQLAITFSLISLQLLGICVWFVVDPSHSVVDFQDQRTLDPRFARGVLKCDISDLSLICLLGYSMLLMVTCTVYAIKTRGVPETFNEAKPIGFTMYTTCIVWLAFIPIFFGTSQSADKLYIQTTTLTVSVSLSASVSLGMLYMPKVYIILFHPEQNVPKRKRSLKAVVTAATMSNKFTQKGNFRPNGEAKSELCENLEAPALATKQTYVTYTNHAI
UniProt P33261, whole entry: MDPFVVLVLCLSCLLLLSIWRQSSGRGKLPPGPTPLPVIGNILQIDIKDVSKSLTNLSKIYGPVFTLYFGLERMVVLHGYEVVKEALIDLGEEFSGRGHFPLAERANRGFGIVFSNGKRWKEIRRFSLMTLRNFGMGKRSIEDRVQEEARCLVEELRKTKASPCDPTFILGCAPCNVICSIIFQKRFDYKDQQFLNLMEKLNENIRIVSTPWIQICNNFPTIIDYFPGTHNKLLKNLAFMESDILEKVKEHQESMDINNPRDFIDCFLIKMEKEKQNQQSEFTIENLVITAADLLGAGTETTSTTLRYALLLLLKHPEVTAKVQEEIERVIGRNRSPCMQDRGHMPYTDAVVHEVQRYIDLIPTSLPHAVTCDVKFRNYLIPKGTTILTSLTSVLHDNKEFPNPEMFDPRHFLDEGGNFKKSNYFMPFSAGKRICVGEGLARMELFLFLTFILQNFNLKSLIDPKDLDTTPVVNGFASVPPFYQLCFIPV

In ChEMBL document CHEMBL1921795, “Discovery, synthesis, and structure-activity relationship development of a series of N-4-(2,5-dioxopyrrolidin-1-yl)phenylpicolinamides (VU0400195, ML182): characterization of a novel positive allosteric modulator of the metabotropic glutamate receptor 4 (mGlu(4)) with oral efficacy in an …” (J Med Chem, 2011):

The compounds below were run against Metabotropic glutamate receptor 4 (Homo sapiens, UniProt Q14833) (assay: Positive allosteric modulator activity at human mGlu4 receptor expressed in CHO cells expressing Gqi5 by calcium mobilization assay).
For `O=C(Nc1ccc(N2C(=O)c3cccc(Cl)c3C2=O)c(Cl)c1)c1ccccn1`, the EC50 was 0.0419 µM.
For `O=C(Nc1ccc(N2C(=O)CC3(CCCCC3)C2=O)c(Cl)c1)c1ccccn1`, the EC50 was 0.158 µM.
With `CC1(C)[C@@H]2C(=O)N(c3ccc(NC(=O)c4ccccn4)cc3Cl)C(=O)[C@@H]21` the EC50 was 0.435 µM.
In the case of `O=C(Nc1ccc(N2C(=O)c3ccccc3C2=O)c(Cl)c1)c1ccccn1`, the EC50 is reported as 0.0594 µM.
In the case of `O=C(Nc1ccc(N2C(=O)[C@H]3CCCC[C@H]3C2=O)c(Cl)c1)c1ccccn1`, the EC50 is reported as 0.37 µM.
Compound `O=C(Nc1ccc(N2C(=O)[C@@H]3[C@H](C2=O)[C@H]2C=C[C@@H]3CC2)c(Cl)c1)c1ccccn1` has an EC50 of 0.287 µM.
In the case of `O=C(Nc1ccc(N2C(=O)CC(c3ccccc3)C2=O)c(Cl)c1)c1ccccn1` (racemic), the EC50 is reported as 0.674 µM.
Work on `CC1(c2ccccc2)CC(=O)N(c2ccc(NC(=O)c3ccccn3)cc2Cl)C1=O` (racemic) yielded an EC50 of 0.771 µM.

These compounds were tested against Cytochrome P450 2C19 (Homo sapiens, UniProt P33261) (assay: Inhibition of CYP2C19 in human liver microsomes using S-mephenytoin as substrate).
Format: ADME, Microsome
Outline: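 Human liver microsomes (0.1 mg/mL) with S-mephenytoin 40 µM in 0.1 M phosphate pH 7.4; compound 100 nM–30 µM in duplicate, 15 min preincubation at 37 °C, then 1 mM NADPH for 30 min. 4-Hydroxymephenytoin measured by LC/MS/MS; IC50 derived.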
With `O=C(Nc1ccc(N2C(=O)CC3(CCCCC3)C2=O)c(Cl)c1)c1ccccn1` the IC50 was over 30 µM.
